## Yeast mating assay B: variants of the scFv Ab-14

Data: MIT Lincoln Laboratory AlphaSeq set, Li et al. 2023, doi:10.1038/s41467-023-39022-2, as distributed in FLAb.

Binding partner: SARS-CoV-2 spike HR2 peptide, sequence PDVDLGDISGINAS.

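The parent was found by panning a naive human phage display library on the peptide. Designed CDR sequences, proposed from the first random library and measured here. Group labels follow the data file (Ctrl: baseline library sampled from a position-specific scoring matrix, with some repeated check sequences; Rand: our label for a block that the file lists under HC and that is probably the random mutants of the ten best first-round binders; En: ensemble of fine-tuned language models; GP: Gaussian process model; HC: hill climbing; Gen: genetic algorithm; Gibbs: Gibbs sampling; a sequence that several methods proposed may carry one label only). In AlphaSeq, yeast of one mating type display the scFv and yeast of the other type display the target. After mating in shaken culture at 30 °C for 16 h, diploids were selected and their barcode pairs sequenced. Scores were corrected for input abundance and mapped to Kd with protein pairs of known affinity run in the same pool. Mating was done six times.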

Each scFv is VH, a 15-residue (Gly4Ser)3 linker, VL, as in the parent Ab-14, and differs from it in the CDRs of the light chain only.
VH: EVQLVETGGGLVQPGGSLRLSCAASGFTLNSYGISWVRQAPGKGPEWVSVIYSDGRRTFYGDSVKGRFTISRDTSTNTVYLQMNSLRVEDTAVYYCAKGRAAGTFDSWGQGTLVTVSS
VL: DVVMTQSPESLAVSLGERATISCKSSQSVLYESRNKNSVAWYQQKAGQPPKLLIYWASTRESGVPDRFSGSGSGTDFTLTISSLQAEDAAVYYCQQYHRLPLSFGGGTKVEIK

Each variant is given by its three light chain CDRs, as the data file delimits them; those of the parent are KSSQSVLYESRNKNSVA, WASTRES, QQYHRLPLS. Affinities are written as log10 Kd with Kd in nM; a lower number is a better binder. The mean shown is taken over the replicates in which the pair was detected. A pair that was not seen in any replicate is written "no signal"; this usually means weak binding, but a binder can also be missed. In the paper, a design with two or fewer of six values counts as a poor binder. The range of this assay differs from that of the first round, and the authors advise against merging the two. Empty control strains, which show no peptide, gave a signal in 4% of pairings with all light chain designs; the median was 2.64 and 95% of these signals were weaker than 1.59. No background was subtracted.

| # | CDR-L1 | CDR-L2 | CDR-L3 | group | mean, log10 nM | detected |
|---|---|---|---|---|---|---|
| 1 | KLMGQGDHSIEHANSIA | NVDNVDM | QQYAHLPLS | En_Gibbs | 0.77 | 6 of 6 |
| 2 | TIGQSQHETSRNKNSVA | HASTRED | QQYDRLPLS | En_HC | 0.46 | 6 of 6 |
| 3 | KSSQSELYESRNKNSVA | EASTRLS | QQYHRLPLS | GP_Gen | 0.12 | 6 of 6 |
| 4 | MMSMGYLGGMRAKNNVA | QEETRED | QQYHRLPLI | En_HC | no signal | 0 of 6 |
| 5 | KSSPSVLYESHQKNSVA | NASTRMS | QQYHRLPLS | GP_HC | -0.09 | 6 of 6 |
| 6 | QVSITNMQGHAMEHNIA | EGTYAEE | QQYARLPLQ | En_Gibbs | 0.64 | 6 of 6 |
| 7 | RFTEHLLMLENKIYNIA | NATKTME | QQYFRLPFV | En_Gibbs | 0.35 | 6 of 6 |
| 8 | KQSQEDLYESRNKNSVA | DASTRES | QQYHRLPLS | GP_HC | -0.28 | 6 of 6 |
| 9 | KISMMINMTFEQSNNVA | EMVTRCK | QQYNRLPLS | En_Gen | 0.52 | 6 of 6 |
| 10 | KVVKAKSEGDYHAANVA | NANKASD | QQYYRLPLA | En_Gibbs | 0.64 | 6 of 6 |
| 11 | KLSQSDLYESRNKNSVA | EASTREV | QQYHRLPLS | GP_Gen | 0.07 | 6 of 6 |
| 12 | KVSQSVDGQDRNKNAVA | AASTRED | QQYHRLPLS | GP_Gibbs | -0.23 | 6 of 6 |
| 13 | HLSDLVKQESRNTNSVA | DNSTRGS | QQYDRLPLS | En_HC | 1.68 | 6 of 6 |
| 14 | KSSQSVLYESRLKNSVA | WASTRES | QQYHRLPLS | Ctrl | 2.09 | 3 of 6 |
| 15 | KADQGALYESRNKNSVA | GASTRES | QQYHRLPLS | GP_HC | -0.32 | 6 of 6 |
| 16 | KFMQSWLYESLNKNSVA | NASQREH | QQYHRLPLS | GP_Gibbs | 0.16 | 6 of 6 |
| 17 | KSSQSVLYESRNKNSVA | AASHRES | QQYHRLPLL | Ctrl | 2.22 | 3 of 6 |
| 18 | KLQQQEQYESRNKNSVA | NASDRQS | QQYHRLPLS | GP_Gibbs | 0.47 | 6 of 6 |
| 19 | KLYEMSASTMSNIRNVA | DNSTREY | QQYNRLPLS | En_Gen | no signal | 0 of 6 |
| 20 | KYSQSVLYESRSKNSVA | WASTRES | QQYHRMPLS | Ctrl | 2.29 | 4 of 6 |
| 21 | KMSQAVLYESRNKNSVA | WASTRES | QTYHRLPLS | Ctrl | 1.17 | 6 of 6 |
| 22 | KLRQETLYESRNKNSVA | SASTRES | QQYHRLPLS | GP_HC | -0.18 | 6 of 6 |
| 23 | IVSQLMLWGWHAKNSIA | EAAMRLN | QQYDRLPLF | En_Gen | no signal | 0 of 6 |
| 24 | KSSGSWLYWSRNKNSVA | GASTRES | QQYHRLPLS | Rand | 0.09 | 6 of 6 |
| 25 | MISNVMNTLTRQGNNVA | DLQERED | QQYFRLPLS | En_Gen | -0.19 | 6 of 6 |
| 26 | KSPQSVLYESRNKNSVA | GASTRED | QSYHRLPLS | GP_HC | 0.21 | 6 of 6 |
| 27 | QLEWLEINGQSVGNSIA | ANVQEQE | QQYFRLPLT | En_Gibbs | 1.76 | 3 of 6 |
| 28 | TISQVHGMLSHNKNSVA | DMNTRGS | QQYDRLPLS | En_HC | 0.85 | 6 of 6 |
| 29 | KSSQSVLYESRKKNSVA | WASTRED | QQYHRLHLS | Ctrl | no signal | 0 of 6 |
| 30 | KFSMSGLYEQSNKNSVA | WASIRES | QQYHRLPLS | Ctrl | 0.68 | 6 of 6 |
| 31 | HSSPSVLYESRNKNNVA | NASTREQ | QQYHRLPLS | GP_HC | 1.23 | 6 of 6 |

Second part, the sequence after the result:

| # | mean, log10 nM | detected | CDR-L1 | CDR-L2 | CDR-L3 | group |
|---|---|---|---|---|---|---|
| 32 | 0.86 | 6 of 6 | TISSIMNHLTRNSNNVA | NMDMREA | QQYDRLPLS | En_Gen |
| 33 | -0.03 | 6 of 6 | KLSQSVLNESRNKNSVA | DASTRES | QQYHRMPLS | GP_HC |
| 34 | 0.83 | 6 of 6 | MVTQMAMTGMMSKRSVA | NAETRET | QQYHHLPLI | En_Gen |
| 35 | 0.75 | 6 of 6 | KSSISYLYESENKRSVA | NASQRES | QQYHRLPLS | GP_HC |
| 36 | 0.87 | 6 of 6 | KLQNSFLYESRQKNNVA | EASQREM | QQYHRLPLS | GP_Gibbs |
| 37 | 1.59 | 1 of 6 | KSSQDVLYETRNKNSVA | GASTREE | QQYIRPPLS | Ctrl |
| 38 | 0.19 | 6 of 6 | KLEQSYNYESRNKNSVA | NASTRES | QQYHRLPLS | GP_HC |
| 39 | 0.07 | 6 of 6 | KSQQSQLYESRNKNSVA | NASTRES | QQYHRLPLS | GP_Gen |
| 40 | 2.19 | 1 of 6 | HITDLMYNNNEGEKNIA | DKNISVM | QQYFRLPLS | En_Gibbs |
| 41 | 0.92 | 6 of 6 | KLQQSFLYESRNKNSVA | EASTRLS | QQYHRLPLS | GP_Gen |
| 42 | 0.64 | 6 of 6 | MMSQVTGLGQRMRNNVA | QTSMRET | QQYDRLPLI | En_Gen |
| 43 | 1.87 | 2 of 6 | QIMEEQSMRTEGNWNIA | QGEQKVH | QQYNRLPLA | En_Gibbs |
| 44 | no signal | 0 of 6 | KSSQSVFYESRNKNSVA | WASTRES | LQYHRLPLK | Ctrl |
| 45 | 0.92 | 6 of 6 | KVAQGIYEPKRHSHNIA | EVSHLCD | QQYARLPLE | En_Gibbs |
| 46 | 0.14 | 6 of 6 | KVSQSMDYESRNVMSVA | NASTRLE | QQYHRLPLS | GP_Gibbs |
| 47 | 2.73 | 2 of 6 | TISTSAMYESTNKNSVA | ELTTRGS | QQYERLPLS | En_HC |
| 48 | 1.71 | 5 of 6 | MISDMGLHDSRIQQSVA | NNSTREA | QQYDRLPLS | En_HC |
| 49 | 0.41 | 6 of 6 | KSSISGLYESRVKNSVA | EASTRES | QQYHRLPLS | GP_HC |
| 50 | 1.21 | 6 of 6 | KLSQAVNVTGKNSNSVA | ELSFREK | QQYDRLPLS | En_HC |
| 51 | 0.05 | 6 of 6 | KASPSEEYESRMKNSVA | NASTRYS | QQYHRLPLS | GP_Gibbs |
| 52 | no signal | 0 of 6 | KSSQSVLYESRNKNSVA | AASTRIS | QEYHRLPLS | Ctrl |
| 53 | 1.47 | 6 of 6 | MFSQLTYTGSRARNAVA | QASTRVN | QQYHHLPLI | En_HC |
| 54 | 0.45 | 6 of 6 | KSSPSVPYESHNKNSVA | NASTRMS | QQYHRLPLS | GP_HC |
| 55 | 1.77 | 2 of 6 | KLQWQQYGENAMEAAIA | NEGTTHQ | QQYSMLPLT | En_Gibbs |
| 56 | 1.69 | 6 of 6 | KLRQSTPYESRNQNSVA | WASTRES | QQYHRLPLS | GP_HC |
| 57 | no signal | 0 of 6 | QSSQSVLRESRNKNSVA | WASTRES | QQVHRLPLS | Ctrl |
| 58 | 0.66 | 6 of 6 | TISQMFLGESRLRNSVA | QASTRES | QSYDRLPLS | En_HC |
| 59 | 3.94 | 1 of 6 | KSSQIVLTESRNKNCVA | TASTREA | QQYHRLPLS | Ctrl |
| 60 | -0.05 | 6 of 6 | KLSQSVLYESRNWNSVA | NASQRES | QQYHRLPLS | GP_Gen |
| 61 | 0.95 | 6 of 6 | HVHSLMAIRQEIQNNVA | DAQNRNA | QQYFRLPLA | En_Gibbs |
| 62 | 0.93 | 6 of 6 | HMKDELGLGPQTYYSVA | HGSIREP | QDYYRLPLG | En_Gibbs |

The first 6 entries again:

CDR-L1,CDR-L2,CDR-L3,group,"mean, log10 nM",detected
KLMGQGDHSIEHANSIA,NVDNVDM,QQYAHLPLS,En_Gibbs,0.77,6 of 6
TIGQSQHETSRNKNSVA,HASTRED,QQYDRLPLS,En_HC,0.46,6 of 6
KSSQSELYESRNKNSVA,EASTRLS,QQYHRLPLS,GP_Gen,0.12,6 of 6
MMSMGYLGGMRAKNNVA,QEETRED,QQYHRLPLI,En_HC,no signal,0 of 6
KSSPSVLYESHQKNSVA,NASTRMS,QQYHRLPLS,GP_HC,-0.09,6 of 6
QVSITNMQGHAMEHNIA,EGTYAEE,QQYARLPLQ,En_Gibbs,0.64,6 of 6